For this test, the target named is T1, human ACKR3 (Homo sapiens, UniProt P25106).
T1 construct: expressed in transfected cells; host or cells: HEK293T
The experiment in a line: ACKR3 β-Arrestin recruitment assay (NanoLuc complementation, NanoBiT) in HEK293T cells. It is filed as cell-based. The note with it: efficacy of CXCL12 at 300 nM set as 100%; average of three independent experiments. On the procedure:
ACKR3 β-Arrestin Recruitment Assay. […] T.; Encell, L. P.; Wood, K. V. Nanoluc complementation reporter optimized for accurate measurement of protein interactions in cells. […] B.; Reynders, N.; Vanderplasschen, A.; Ollert, M.; Bouvier, M.; Szpakowska, M.; Chevigné, A. Proadrenomedullin n-terminal 20 peptides (pamps) are agonists of the chemokine scavenger receptor ACKR3/CXCR7. […] The prepared cells were then treated with compounds at concentrations ranging from 0.3 nM to 100 µM. Induction of β-Arrestin recruitment to receptors was evaluated by measuring bioluminescence with a Mithras LB940 luminometer (Berthold Technologies).
All curves were fitted to data points generated from the mean of at least three independent experiments. Results with values of p < 0.05 were considered statistically significant.
In general terms: Arrestin recruitment assays detect the binding of arrestin to an activated receptor.

Amino acid sequences for entries named in this document (tags omitted). A change or cut given only in a name is not applied to a line headed by its entry.
UniProt P25106: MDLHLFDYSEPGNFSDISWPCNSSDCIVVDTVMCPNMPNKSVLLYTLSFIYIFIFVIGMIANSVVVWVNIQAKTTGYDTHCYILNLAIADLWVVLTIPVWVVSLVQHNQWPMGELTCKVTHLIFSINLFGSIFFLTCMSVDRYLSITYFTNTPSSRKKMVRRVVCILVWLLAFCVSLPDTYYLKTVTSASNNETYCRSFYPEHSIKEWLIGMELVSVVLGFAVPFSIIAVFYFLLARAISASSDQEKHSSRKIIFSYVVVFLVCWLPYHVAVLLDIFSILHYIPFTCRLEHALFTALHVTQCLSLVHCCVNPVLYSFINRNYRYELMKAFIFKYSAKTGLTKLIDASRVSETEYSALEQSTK

Structures are written as SMILES.

As to `CCN(CCCNC(=O)c1ccc(-c2ccccc2)s1)Cc1ccccc1` [Compound 23, N-(3-(benzyl(ethyl)amino)propyl)-5-phenylthiophene-2-carboxamide], the “Efficacy (Emax) vs CXCL12” value came to 95%.

Source of the values: patent EP4620949A1, “ACKR3 MODULATORS FOR CARDIOVASCULAR OR ANTIPLATELET THERAPY” (Eberhard Karls Universität Tübingen (Medizinische Fakultät), priority 2024, dated 2025).
